# Binding of CDR-mutated scFvs to a peptide of the spike HR2 region

The measurements come from Engelhart et al. 2022 (doi:10.1038/s41597-022-01779-4) through the FLAb antibody collection.

Binding partner: SARS-CoV-2 spike HR2 peptide, sequence PDVDLGDISGINAS.

Parent scFv Ab-14: VH joined to VL by a 15-residue (Gly4Ser)3 linker. Changes lie in the heavy chain CDRs alone.
VH: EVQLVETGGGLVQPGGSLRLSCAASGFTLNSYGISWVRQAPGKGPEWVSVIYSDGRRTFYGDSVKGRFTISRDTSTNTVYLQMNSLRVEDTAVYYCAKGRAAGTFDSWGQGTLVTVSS
VL: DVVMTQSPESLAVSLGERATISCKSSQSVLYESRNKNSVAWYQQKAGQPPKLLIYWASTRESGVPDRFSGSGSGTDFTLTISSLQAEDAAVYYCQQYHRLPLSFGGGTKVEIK

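Phage display of a naive human antibody library on the peptide gave the parent. Library AAYL49 holds single substitutions and randomly drawn double and triple substitutions in the CDRs. The scFvs were displayed on barcoded MATa yeast, the peptide on MATalpha yeast. Binding brings cells together so that they mate, and sequencing counts the barcode pairs among the diploids. Scores were corrected for input abundance and mapped to Kd with protein pairs of known affinity run in the same pool. There are three technical replicates.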

Substitutions are numbered in sequence along the VH above, starting at 1 (not Kabat).
Every variant below is changed at R100 of the VH (sequential numbering).
The Kd shown is the geometric mean over detected replicates; a lower Kd is a better binder.
A pair that was not seen in any replicate is written "nd"; this usually means weak binding, but a binder can also be missed.

Variant Y32F/R100I/D106A showed 510 nM (3 of 3 replicates). With Y32I/R100I/D106N the result was nd (0 of 3 replicates). For R100W/G103Q, the assay gave 71 µM (2 of 3 replicates). For S35H/D62S/R100W, the assay gave 340 nM (3 of 3 replicates). Variant S53T/R100Y showed 1.9 µM (2 of 3 replicates). Variant N30W/G61S/R100S gave 6.0 nM (3 of 3 replicates). Variant V50A/Y52I/R100V showed nd (0 of 3 replicates).

For D62Q/R100Y/D106Q, the assay gave 340 nM (3 of 3 replicates). For S31A/V64G/R100E, the assay gave nd (0 of 3 replicates). For V64T/R100N/S107M, the assay gave 2.5 µM (3 of 3 replicates). Variant G61W/G99A/R100I showed 2.0 µM (1 of 3 replicates). For R56A/R100T/S107E, the assay gave 7.5 nM (3 of 3 replicates). For T28M/R100Y/A101Q, the assay gave 11 nM (3 of 3 replicates). With L29F/I34Y/R100L the result was nd (0 of 3 replicates).

Variant F27S/R100G/S107G showed nd (0 of 3 replicates). For I34A/R100I/S107K, the assay gave nd (0 of 3 replicates). With R100C the result was 70 nM (3 of 3 replicates). Variant G61W/K65G/R100W showed nd (0 of 3 replicates). With R100S/A102K/D106F the result was nd (0 of 3 replicates). For R57Q/D62L/R100M, the assay gave 86 µM (3 of 3 replicates). Variant L29W/R57A/R100D gave nd (0 of 3 replicates).

Variant D62I/V64M/R100H showed 2.0 µM (1 of 3 replicates). With S31W/R100C/S107W the result was 35 µM (2 of 3 replicates). Variant D54Y/Y60C/R100Y gave nd (0 of 3 replicates). With R57L/Y60E/R100T the result was 410 µM (3 of 3 replicates). Variant V64Q/R100S/F105N gave nd (0 of 3 replicates). With G33C/I51E/R100V the result was nd (0 of 3 replicates). Variant F27S/R100Q/D106L gave nd (0 of 3 replicates).

Variant L29Q/D62C/R100H showed 15 µM (1 of 3 replicates). For S63I/R100V, the assay gave 1.4 µM (1 of 3 replicates). Variant G55I/R100P/D106K showed nd (0 of 3 replicates). Variant Y32P/S63G/R100T gave nd (0 of 3 replicates). Variant G61A/R100L/S107K gave 3.9 nM (3 of 3 replicates). Variant R100S/T104Y showed nd (0 of 3 replicates). With I51G/R100Y/D106E the result was nd (0 of 3 replicates).

With R57C/Y60Q/R100Y the result was nd (0 of 3 replicates). With Y52V/R100T the result was 14 µM (2 of 3 replicates). Variant I34F/K65L/R100S gave 24 nM (3 of 3 replicates). For R100P, the assay gave 8.7 nM (3 of 3 replicates). For G33S/S63A/R100H, the assay gave 58 µM (2 of 3 replicates). Variant I51V/D62R/R100H showed 14 µM (1 of 3 replicates). Variant T58L/R100P/G103K showed 25 µM (1 of 3 replicates).

Variant G26Y/V64N/R100I showed 1.4 µM (1 of 3 replicates). With I34P/V64T/R100P the result was nd (0 of 3 replicates).

Extract of 5 entries:

{"changes": "T28M/R100Y/A101Q", "Kd (apparent)": "11 nM", "seen in": "3/3"}
{"changes": "L29F/I34Y/R100L", "Kd (apparent)": "nd", "seen in": "0/3"}
{"changes": "R57L/Y60E/R100T", "Kd (apparent)": "410 µM", "seen in": "3/3"}
{"changes": "Y32I/R100I/D106N", "Kd (apparent)": "nd", "seen in": "0/3"}
{"changes": "F27S/R100Q/D106L", "Kd (apparent)": "nd", "seen in": "0/3"}

Nonspecific signal, from three strains lacking the peptide, appeared in 15% of pairings of library AAYL49, centred on 11 µM (5% of these signals below 680 nM); values are not corrected for it.